Laboratory results reported in patent publication US6500824B1, “Kappa (OP2) opioid receptor antagonists” (Regents of the University of Minnesota, priority 1998, dated 2002).

Amino acid sequences for entries named in this document (tags omitted).
UniProt P33535, whole entry: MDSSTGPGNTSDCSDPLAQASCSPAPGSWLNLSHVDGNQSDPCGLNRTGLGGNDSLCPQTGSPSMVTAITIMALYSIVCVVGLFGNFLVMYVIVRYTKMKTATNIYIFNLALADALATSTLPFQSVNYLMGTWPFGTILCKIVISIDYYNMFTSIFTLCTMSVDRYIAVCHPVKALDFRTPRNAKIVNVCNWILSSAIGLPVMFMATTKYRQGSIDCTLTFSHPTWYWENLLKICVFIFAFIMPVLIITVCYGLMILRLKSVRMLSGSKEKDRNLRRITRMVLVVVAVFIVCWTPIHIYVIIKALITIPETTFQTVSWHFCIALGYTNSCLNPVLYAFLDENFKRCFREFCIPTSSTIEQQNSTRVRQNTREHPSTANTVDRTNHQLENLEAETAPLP
UniProt P33535, whole entry K303E: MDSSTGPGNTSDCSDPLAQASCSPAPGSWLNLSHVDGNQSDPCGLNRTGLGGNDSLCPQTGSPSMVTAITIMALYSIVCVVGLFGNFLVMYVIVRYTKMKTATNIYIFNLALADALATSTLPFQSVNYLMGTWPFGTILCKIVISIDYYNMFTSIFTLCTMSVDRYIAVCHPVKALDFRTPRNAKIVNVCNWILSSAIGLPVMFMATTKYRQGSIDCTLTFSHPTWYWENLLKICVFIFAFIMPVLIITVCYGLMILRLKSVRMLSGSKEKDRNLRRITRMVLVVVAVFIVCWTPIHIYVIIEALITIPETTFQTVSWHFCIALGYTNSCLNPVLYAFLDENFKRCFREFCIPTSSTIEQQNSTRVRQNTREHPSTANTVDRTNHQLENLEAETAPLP

Columns and labels:
[1] = target: T1, wt μ receptor (Rattus norvegicus, UniProt P33535); test: Competition binding with [3H]diprenorphine, whole cell binding, COS-7 cells, wt μ; conditions: [3H]diprenorphine competition; COS-7 whole cell binding; read-out: Ki ± SEM, wt μ
T1 construct: expressed in transfected cells; host or cells: COS-7 (per the earlier reading)
Description: (§1) The effects of mutational exchange of Glu297 in the κ receptor and Lys303 in the μ receptor on the binding affinity of representative compounds of the invention were examined using techniques known in the art.

[2] = target: T2, μ[K303E] receptor (Rattus norvegicus, UniProt P33535, K303E); test: Competition binding with [3H]diprenorphine, whole cell binding, COS-7 cells, μ[K303E]; conditions: [3H]diprenorphine competition; COS-7 whole cell binding; read-out: Ki ± SEM, μ[K303E]
T2 construct: expressed in transfected cells; host or cells: COS-7 (per the earlier reading)
Description: as §1

Oc1ccc2c3c1O[C@H]1c4[nH]c5c(c4C[C@@]4(O)[C@@H](C2)N(CC2CC2)CC[C@]314)C[C@@]1(O)[C@H]2Cc3ccc(O)c4c3[C@@]1(CCN2CC1CC1)[C@H]5O4 [nor-BNI, norbinaltorphimine, reference compound]
Ki [1]: 102 ± 10.2 nM | Ki [2]: 0.77 ± 0.13 nM
